The list shows a part of the results, in another mix than the full data. Results filed as inconclusive are left out. Active and inactive are the calls of the source. The call rests on the fitted dose curve; in most records, active means well fitted inhibition curve with a large enough effect; inconclusive means small, poorly fitted or top-dose-only effect, or another doubt; inactive means no such curve, though single readings can be large or run the other way.
On the % scale 0 is the no-effect control and ±100 the full control effect.

Amino acid sequences for entries named in this document (tags omitted).
UniProt P11473, whole entry: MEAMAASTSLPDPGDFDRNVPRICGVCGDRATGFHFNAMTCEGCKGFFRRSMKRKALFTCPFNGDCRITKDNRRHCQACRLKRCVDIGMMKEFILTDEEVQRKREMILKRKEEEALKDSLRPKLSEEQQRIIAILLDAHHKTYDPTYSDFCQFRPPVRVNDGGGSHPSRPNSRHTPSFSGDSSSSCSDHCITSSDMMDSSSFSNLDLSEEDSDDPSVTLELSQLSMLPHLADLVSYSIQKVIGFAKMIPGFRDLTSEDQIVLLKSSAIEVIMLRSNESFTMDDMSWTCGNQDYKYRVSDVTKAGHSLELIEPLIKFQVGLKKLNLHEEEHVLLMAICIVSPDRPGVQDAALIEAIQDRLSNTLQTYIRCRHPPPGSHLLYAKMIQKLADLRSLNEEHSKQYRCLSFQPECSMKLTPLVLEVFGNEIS

For this experiment, the target named is Vitamin D3 receptor (Homo sapiens) (UniProt P11473). As to the kind of experiment: Inhibitors of the vitamin D receptor (VDR): qHTS. The note with it: VDR-SRC2-3 peptide fluorescence polarization, 2 h; stronger effect = lower value. (qHTS replaces the single test concentration by a dilution series.)
As for `CCCOc1ccc(C(=O)NCC2(N(C)C)CCCCC2)cc1`, the max response, negative = inhibition was inactive: 14.6%. As to `O=C(O)C1(Nc2ccccc2)CCN(Cc2ccccc2)CC1`, the max response, negative = inhibition is inactive: 18.9%. The same measure for `CN1CCC(Nc2ccc(F)c(Cl)c2)CC1`: inactive: 1.3%; for `CCOc1ncccc1C(=O)NCC1(N2CCOCC2)CCCCC1`: inactive: 3.03%. The same measure for `CN1CCC(Nc2ccc(Cl)cc2)CC1`: inactive: -10.7%. The same measure for `CCC(CO)(C(=O)OC1CN2CCC1CC2)c1ccccc1` (stereo not given): inactive: -18.9%. With `COc1cc(OC)cc(C(=O)NCC2(N3CCOCC3)CCCCC2)c1`, the max response, negative = inhibition is inactive: 4.28%.

Regarding `COc1cccc(C(=O)N(c2cc(C)cc(C)c2)C2CCN(C(=O)OC(C)(C)C)CC2)c1`, the max response, negative = inhibition is inactive: -5.07%. For `Cc1ccc(NC2(C#N)CCN(Cc3ccccc3)CC2)cc1` the value was inactive: 6.57%; for `Fc1ccccc1NC1CCN(Cc2ccccc2)CC1`, inactive: -1.64%.

`Cc1ccc(C(=O)NCC2(N3CCCCC3)CCCCC2)o1`: the max response, negative = inhibition is inactive: -4.94%. In the case of `COc1cc(OC)cc(C(=O)NCC2(N3CCCCC3)CCCCC2)c1`, the max response, negative = inhibition was inactive: 6.72%. The same measure for `CC(=O)N(c1ccccc1)C1CCNCC1`: inactive: 22.6%; for `CN(C)C1(CNC(=O)c2ccc(C(C)(C)C)cc2)CCCCC1`: inactive: 20%; for `Cn1c(=O)[nH]cc(N(CCCl)CCCl)c1=O`: inactive: 7.22%.

Turning to `CN(C)c1ccc(C(=O)NCC2(N3CCCCC3)CCCCC2)cc1`, the max response, negative = inhibition is inactive: -14.3%. For `CC(C)(C)c1ccc(C(=O)NCC2(N3CCOCC3)CCCCC2)cc1` the value was inactive: 10.7%; for `O=C(NCC1(N2CCCCC2)CCCCC1)c1ccco1`, inactive: 4.53%; for `Cc1ccccc1C(=O)NCC1(N(C)C)CCCCC1`, inactive: 1.93%. For `CCN1CCC(Nc2cccc(F)c2)CC1` the value was inactive: -0.372%; for `Cc1ccccc1NC1(C#N)CCN(Cc2ccccc2)CC1`, inactive: -0.346%. The same measure for `CCOC(=O)C(CC)C1=NC(C)(C)Cc2ccccc21.O=[N+]([O-])c1cc([N+](=O)[O-])c(O)c([N+](=O)[O-])c1` (stereo not given): inactive: -9.15%. `O=C(NCC1(N2CCOCC2)CCCCC1)c1ccc([N+](=O)[O-])cc1`: the max response, negative = inhibition is inactive: 11.2%. Regarding `CC(C)(C)OC(=O)N1CCC(N(C(=O)c2ccccc2)c2ccc(Cl)cc2)CC1`, the max response, negative = inhibition was inactive: 12.4%. Turning to `N#Cc1ccc(C(=O)NCC2(N3CCCCC3)CCCCC2)cc1`, the max response, negative = inhibition was inactive: 4.21%. The same measure for `O=C(NCC1(N2CCOCC2)CCCCC1)c1ccccc1[N+](=O)[O-]`: inactive: 15%; for `CCCN1CCC(Nc2cc(OC)cc(OC)c2)CC1`: inactive: 5.37%. The same measure for `Cc1cc(N(CCCl)CCCl)ccc1C=O`: inactive: -23.5%. In the case of `O=C(NCC1(N2CCOCC2)CCCCC1)c1ccccc1`, the max response, negative = inhibition is inactive: 18.1%. The same measure for `c1ccc(CN2CCC(Nc3ccccc3)CC2)cc1`: inactive: -1.79%; for `CN(C)C1(CNC(=O)c2cccc(C#N)c2)CCCCC1`: inactive: -7.61%; for `COc1cc(C(=O)NCC2(N3CCOCC3)CCCCC2)cc(OC)c1C`: inactive: 6.41%. On to `O=C(O)c1cccc(Nc2c([N+](=O)[O-])cc([N+](=O)[O-])cc2[N+](=O)[O-])c1`, for which the max response, negative = inhibition is inactive: 4.97%.

In the case of `O=C(OC1CN2CCC1CC2)C1c2ccccc2C=Cc2ccccc21` (stereo not given), the max response, negative = inhibition is inactive: 3.21%. The same measure for `CCc1cc(C(=O)NCC2(N3CCCCC3)CCCCC2)sc1C`: inactive: 1.57%. For `N/C(=N\O)c1c(N)no[n+]1[O-]` the value was inactive: -2.62%; for `CCOC(=O)N1CCC(Nc2ccc(C)cc2)CC1`, inactive: -15.4%; for `O=C(NCC1(N2CCOCC2)CCCCC1)c1cc(F)c(F)cc1Cl`, inactive: -1.12%. For `COc1cc(OC)c(C(=O)NCC2(N(C)C)CCCCC2)cc1OC` the value was inactive: 5.8%; for `O=[N+]([O-])c1cc([N+](=O)[O-])c(OC2CCCCC2O)c([N+](=O)[O-])c1` (stereo not given), inactive: 8.11%. With `CN(C)c1cccc(C(=O)NCC2(N3CCCCC3)CCCCC2)c1`, the max response, negative = inhibition is inactive: 14.9%. In the case of `COc1ccc(CN(CCCl)CCCl)cc1Cl`, the max response, negative = inhibition was inactive: 3.56%. Take `CC(C)c1ccc(NC2CCN(C(=O)OC(C)(C)C)CC2)cc1`: the max response, negative = inhibition is inactive: -6.03%. The same measure for `CCCOc1ccc(C(=O)NCC2(N(C)C)CCCCC2)cc1OC`: inactive: 8.41%; for `CCCCOc1ccccc1C(=O)NCC1(N2CCOCC2)CCCCC1`: inactive: 12.1%. For `O=C(NCC1(N2CCCCC2)CCCCC1)c1cncc(Br)c1` the value was inactive: -10.9%; for `CN1CCC(Nc2cccc(F)c2)CC1`, inactive: 0.918%; for `O=C(OC1CN2CCC1CC2)c1ccc([N+](=O)[O-])cc1` (stereo not given), inactive: -9.14%. The same measure for `CSc1ccc(C(=O)NCC2(N3CCOCC3)CCCCC2)cc1`: inactive: -14.1%; for `O=C(NCC1(N2CCCCC2)CCCCC1)c1cccc([N+](=O)[O-])c1`: inactive: -5.74%; for `CCOc1ccc(C(=O)NCC2(N3CCOCC3)CCCCC2)cc1`: inactive: 19.5%. Regarding `N#CC1(Nc2ccccc2)CCN(CCc2ccccc2)CC1`, the max response, negative = inhibition is inactive: 8.17%. On to `CCN1CCC(Nc2ccc(Cl)cc2)CC1`, for which the max response, negative = inhibition was inactive: -6.51%. For `O=C(NCC1(N2CCCCC2)CCCCC1)c1ccc(OC(F)F)cc1` the value was inactive: 11.2%. The same measure for `CN1CCN(CCOC(=O)C(O)(c2ccccc2)c2ccccc2)CC1`: inactive: -3.49%. The same measure for `COc1ccc(NC2CCN(C(=O)OC(C)(C)C)CC2)cc1`: inactive: -12.5%. Turning to `CC(C)c1ccc(C(=O)NCC2(N3CCOCC3)CCCCC2)cc1`, the max response, negative = inhibition was inactive: 0.519%.

For the molecule `COc1cc(C(=O)NCC2(N3CCCCC3)CCCCC2)ccc1OC(F)F`, the max response, negative = inhibition was inactive: 9.94%. For `O=C(NCC1(N2CCOCC2)CCCCC1)c1cc(=O)[nH]c2ccccc12` the value was inactive: -3.28%; for `CCCOc1cccc(C(=O)NCC2(N3CCOCC3)CCCCC2)c1`, inactive: -1.69%. Consider `O=C(NCC1(N2CCCCC2)CCCCC1)c1cccc(C(F)(F)F)c1`, for which the max response, negative = inhibition is inactive: 8.62%. For `O=[N+]([O-])c1cc([N+](=O)[O-])c(NCC2CCS(=O)(=O)C2)c([N+](=O)[O-])c1` (stereo not given) the value was inactive: 0.508%. Turning to `COc1ccc(NC2CCN(CCc3ccccc3)CC2)c(OC)c1`, the max response, negative = inhibition is inactive: -16.5%. For `CCOC(=O)N1CCC(Nc2ccc(F)cc2)CC1` the value was inactive: 8.6%; for `O=C(NCC1(N2CCCCC2)CCCCC1)c1ccc(F)cc1`, inactive: -6.44%.

Consider `COc1ccccc1C(=O)NCC1(N2CCOCC2)CCCCC1`, for which the max response, negative = inhibition is inactive: 13.6%.

In the case of `CCOc1ccc(C)cc1CN(CCCl)CCCl`, the max response, negative = inhibition was inactive: -0.513%.

For `O=C(NCC1(N2CCOCC2)CCCCC1)c1ccc(Cl)cc1`, the max response, negative = inhibition was inactive: -3.13%. For `COc1cc(C(=O)NCC2(N(C)C)CCCCC2)ccc1OC(F)F` the value was inactive: -11.8%; for `CCOC(=O)N1CCC(Nc2cccc(C)c2)CC1`, inactive: 3.72%; for `Cc1cccc(NC2(C#N)CCN(Cc3ccccc3)CC2)c1`, inactive: -8.85%.

Regarding `CSc1ccccc1C(=O)NCC1(N2CCCCC2)CCCCC1`, the max response, negative = inhibition was inactive: 9.67%. For `O=C(NCC1(N2CCCCC2)CCCCC1)c1cccs1` the value was inactive: 4.85%; for `O=C(NCC1(N2CCCCC2)CCCCC1)c1ccc(=O)[nH]c1`, inactive: 2.79%; for `COc1ccc(C(=O)NCC2(N3CCCCC3)CCCCC2)c(OC)c1OC`, inactive: 4.05%. The same measure for `CC(C)(C)OC(=O)N1CCC(N(C(=O)c2ccccc2)c2ccc(F)cc2)CC1`: inactive: -5.71%; for `CCOC(=O)N1CCC(Nc2ccc(OC)cc2)CC1`: inactive: -9.28%. For `O=C1C(O)=C([N+](=O)[O-])C(=O)C(O)=C1[N+](=O)[O-]` the value was inactive: -6.76%; for `COc1ccc(Cl)cc1C(=O)NCC1(N2CCOCC2)CCCCC1`, inactive: 5.1%. Consider `O=C(OC1CN2CCC1CC2)C1c2ccccc2Oc2ccccc21` (stereo not given), for which the max response, negative = inhibition is inactive: -4.5%. The same measure for `N#CC1(Nc2ccccc2)CCN(Cc2ccccc2)CC1`: inactive: -6.68%; for `O=C(NCC1(N2CCCCC2)CCCCC1)c1ccc(Cl)s1`: inactive: 8.84%; for `O=C(NCC1(N2CCOCC2)CCCCC1)c1cc2ccccc2o1`: inactive: 7.85%. The same measure for `Cc1cc(C)cc(N(C(=O)c2ccccc2)C2CCN(C(=O)OC(C)(C)C)CC2)c1`: inactive: 0.441%; for `O=C(NCC1(N2CCCCC2)CCCCC1)c1ccc(Cl)nc1`: inactive: -13.8%.

The values are drawn from PubChem BioAssay AID504847 (National Center for Advancing Translational Sciences (NCATS), 2011).
